Like-named read-outs stand apart in the source and are kept apart here.
What was measured:
[1] = target: PDE4B2 (Homo sapiens, UniProt Q07343); assay: PDE enzyme activity inhibition assay (fluorescence polarization, IMAP)
Method: (§1) The inhibitory activity of the compounds of the Examples against PDE enzymes was evaluated using a fluorescence polarization (FP) assay. RPL-554, the compound disclosed in Example 1 of CN100415743C, was used as the positive control. [drawing 182]
(§2) In a reaction buffer, i.e., 1× IMAP Reaction Buffer containing 0.1% BSA and supplemented with 1 mM DTT, a PDE enzyme solution and a substrate solution (FAM-cyclic AMP/cyclic AMP) were prepared. The positive control was prepared at an initial concentration of 1/10 µM for the PDE assay and was diluted 3-fold, with a 10+0 dose design. Using the acoustic liquid handling technology (Echo 655), 0.05 µL of each compound in 100% DMSO was transferred into a 384-well plate (Corning 4514), followed by centrifugation at 1,000 rpm for 1 min. Then, 2.5 µL of the PDE enzyme solution was transferred into the 384-well reaction plate, followed by centrifugation at 1,000 rpm for 1 min and incubation at 25 °C for 10 min. Subsequently, 2.5 µL of the substrate solution was transferred into the 384-well reaction plate, followed by centrifugation at 1,000 rpm for 1 min and incubation at 25 °C for 60 min. Then, 15 µL of a binding reagent mixture was transferred into the 384-well reaction plate, followed by centrifugation at 1,000 rpm for 1 min and incubation at 25 °C for 60 min. Finally, the FP signal was measured using a BMG PHERAstar FSX plate reader. IC50 values and nonlinear regression curve fitting were obtained using GraphPad Prism software.
(§3) The inhibitory activities of the compounds against PDE enzymes were evaluated using the FP method, with RPL-554 and compound D7 as control compounds. The detailed test method was the same as that described in PDE Enzyme Activity Inhibition Assay I. The structural formulae of RPL-554 and compound D7 are shown below. [drawing 183]

The chains behind the UniProt entries cited, without tags or fusion partners. A line that says so, or that is headed by a name, gives the form on record, which may keep a tag or linker. Residues count along the entry.
UniProt Q07343, 1-564 with tags or gaps: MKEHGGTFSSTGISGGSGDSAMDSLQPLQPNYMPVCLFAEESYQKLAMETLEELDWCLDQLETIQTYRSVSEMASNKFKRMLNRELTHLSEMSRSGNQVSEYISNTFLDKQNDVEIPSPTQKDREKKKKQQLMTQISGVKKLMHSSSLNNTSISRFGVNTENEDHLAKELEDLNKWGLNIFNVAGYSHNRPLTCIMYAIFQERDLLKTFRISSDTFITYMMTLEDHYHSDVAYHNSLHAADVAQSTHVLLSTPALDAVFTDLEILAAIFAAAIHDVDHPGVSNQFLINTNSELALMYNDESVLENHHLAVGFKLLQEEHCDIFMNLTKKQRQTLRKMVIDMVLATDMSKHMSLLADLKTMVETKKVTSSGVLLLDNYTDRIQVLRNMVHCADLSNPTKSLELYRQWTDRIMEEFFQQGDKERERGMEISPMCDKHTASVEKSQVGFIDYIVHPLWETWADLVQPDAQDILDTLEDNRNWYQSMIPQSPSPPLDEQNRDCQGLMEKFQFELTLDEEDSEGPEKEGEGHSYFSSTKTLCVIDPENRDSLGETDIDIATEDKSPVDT
UniProt Q08499, 303-809 limits assumed: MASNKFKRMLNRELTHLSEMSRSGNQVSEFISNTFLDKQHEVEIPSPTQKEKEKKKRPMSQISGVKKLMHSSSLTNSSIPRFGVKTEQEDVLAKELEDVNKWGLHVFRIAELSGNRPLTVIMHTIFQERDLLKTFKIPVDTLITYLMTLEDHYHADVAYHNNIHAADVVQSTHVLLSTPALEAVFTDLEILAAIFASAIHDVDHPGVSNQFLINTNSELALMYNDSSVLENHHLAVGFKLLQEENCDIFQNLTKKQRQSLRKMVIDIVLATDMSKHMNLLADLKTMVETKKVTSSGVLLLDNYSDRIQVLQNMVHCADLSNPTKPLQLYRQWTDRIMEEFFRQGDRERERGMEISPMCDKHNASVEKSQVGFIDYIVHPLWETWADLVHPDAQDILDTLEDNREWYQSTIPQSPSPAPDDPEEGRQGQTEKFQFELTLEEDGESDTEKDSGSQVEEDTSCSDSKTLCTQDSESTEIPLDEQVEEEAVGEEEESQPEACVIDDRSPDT
UniProt Q14432, whole entry: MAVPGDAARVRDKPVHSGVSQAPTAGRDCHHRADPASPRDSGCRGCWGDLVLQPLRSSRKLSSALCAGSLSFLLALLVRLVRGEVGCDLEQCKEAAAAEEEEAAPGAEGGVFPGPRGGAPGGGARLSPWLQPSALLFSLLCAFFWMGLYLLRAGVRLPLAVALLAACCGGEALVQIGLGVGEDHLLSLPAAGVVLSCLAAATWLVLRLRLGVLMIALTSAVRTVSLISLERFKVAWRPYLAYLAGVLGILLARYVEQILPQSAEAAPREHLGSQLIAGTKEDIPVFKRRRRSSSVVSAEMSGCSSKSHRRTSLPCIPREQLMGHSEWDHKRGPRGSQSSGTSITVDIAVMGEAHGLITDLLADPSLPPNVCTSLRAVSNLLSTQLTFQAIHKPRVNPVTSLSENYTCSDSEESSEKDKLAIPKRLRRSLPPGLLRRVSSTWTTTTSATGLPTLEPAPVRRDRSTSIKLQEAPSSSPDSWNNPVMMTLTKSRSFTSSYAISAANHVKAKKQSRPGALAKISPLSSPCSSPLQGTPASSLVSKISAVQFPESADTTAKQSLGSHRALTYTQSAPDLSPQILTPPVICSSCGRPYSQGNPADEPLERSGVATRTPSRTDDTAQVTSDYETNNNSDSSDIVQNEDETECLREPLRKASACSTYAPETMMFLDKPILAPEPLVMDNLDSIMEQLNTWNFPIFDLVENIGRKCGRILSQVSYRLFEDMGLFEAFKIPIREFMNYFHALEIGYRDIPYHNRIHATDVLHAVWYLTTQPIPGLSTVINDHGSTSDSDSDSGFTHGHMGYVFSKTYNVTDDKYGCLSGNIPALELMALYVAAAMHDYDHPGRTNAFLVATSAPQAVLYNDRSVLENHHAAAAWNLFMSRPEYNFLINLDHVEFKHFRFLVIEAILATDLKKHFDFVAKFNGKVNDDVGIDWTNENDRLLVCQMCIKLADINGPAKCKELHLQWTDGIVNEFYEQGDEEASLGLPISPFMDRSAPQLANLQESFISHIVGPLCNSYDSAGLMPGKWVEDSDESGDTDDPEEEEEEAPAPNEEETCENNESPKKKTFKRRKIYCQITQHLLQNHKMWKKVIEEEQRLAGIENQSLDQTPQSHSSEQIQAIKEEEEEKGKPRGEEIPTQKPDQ
UniProt Q13370, whole entry: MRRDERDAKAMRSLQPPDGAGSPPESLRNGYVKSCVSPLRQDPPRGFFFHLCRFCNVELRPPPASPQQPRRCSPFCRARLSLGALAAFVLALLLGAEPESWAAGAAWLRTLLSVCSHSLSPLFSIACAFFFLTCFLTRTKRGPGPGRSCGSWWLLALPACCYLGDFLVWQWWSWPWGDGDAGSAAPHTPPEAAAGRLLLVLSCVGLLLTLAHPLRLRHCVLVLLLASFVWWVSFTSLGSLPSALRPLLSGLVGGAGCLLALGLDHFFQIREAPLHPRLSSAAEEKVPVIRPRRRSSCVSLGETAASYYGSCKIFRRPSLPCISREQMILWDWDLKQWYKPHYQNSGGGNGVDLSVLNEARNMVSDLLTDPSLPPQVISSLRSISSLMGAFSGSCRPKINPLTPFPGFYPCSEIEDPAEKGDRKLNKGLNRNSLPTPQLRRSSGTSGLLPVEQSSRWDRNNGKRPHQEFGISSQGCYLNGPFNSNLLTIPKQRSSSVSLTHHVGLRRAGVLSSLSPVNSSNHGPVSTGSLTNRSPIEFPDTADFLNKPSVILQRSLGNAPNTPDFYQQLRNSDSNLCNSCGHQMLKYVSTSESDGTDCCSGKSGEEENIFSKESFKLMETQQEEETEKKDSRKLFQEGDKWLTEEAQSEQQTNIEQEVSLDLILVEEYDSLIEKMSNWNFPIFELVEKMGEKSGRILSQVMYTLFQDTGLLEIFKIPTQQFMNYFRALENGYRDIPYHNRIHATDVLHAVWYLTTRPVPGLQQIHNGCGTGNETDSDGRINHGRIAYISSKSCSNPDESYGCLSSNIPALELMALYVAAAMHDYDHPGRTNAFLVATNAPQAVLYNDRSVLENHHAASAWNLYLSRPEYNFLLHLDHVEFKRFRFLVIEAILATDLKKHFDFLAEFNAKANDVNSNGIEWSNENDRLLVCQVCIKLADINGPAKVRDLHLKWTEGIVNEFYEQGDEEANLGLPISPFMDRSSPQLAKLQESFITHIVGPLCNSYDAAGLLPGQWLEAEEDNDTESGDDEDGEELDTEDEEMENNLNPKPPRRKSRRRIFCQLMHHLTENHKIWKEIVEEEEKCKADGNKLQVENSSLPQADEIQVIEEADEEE

[2] = target: PDE4D2 (Homo sapiens, UniProt Q08499); assay: as above; details: read-out: PDE4D2; FP assay, Table 4
Method: as §1, §2, §3

[3] = target: PDE3A (Homo sapiens, UniProt Q14432); assay: as above
Method: as §1, §2, §3

[4] = target: PDE3B (Homo sapiens, UniProt Q13370); assay: as above; details: read-out: PDE3B; FP assay, Table 4
Method: as §1, §2, §3

[5] = Oral bioavailability and pharmacokinetic study in rats; details: rat; for major pharmacokinetic profiles (in words): 1 mg/kg iv and po; for AUCINF_obs / AUClast / C0 / T1/2 / Cmax / Tmax: 1 mg/kg; for F: po (oral gavage) 1 mg/kg versus iv 1 mg/kg
Method: Test Objective: To evaluate the oral bioavailability and other pharmacokinetic parameters of RPL-554, and Compounds 1-2, 10-2, 67, and 69 of the present disclosure in rats following oral gavage at 1 mg/kg.
Animals: Male SD rats, n = 30.
The dosing solution for the RPL-554-iv-1 mg/kg group and the RPL-554-po-1 mg/kg group was prepared as follows: approximately 3.11 mg of RPL-554 was weighed, 0.3 mL of DMSO was added, then 29.7 mL of normal saline was added, and the mixture was vortexed for 2 min. The solution was freshly prepared before use.
The dosing solution for the Compound 10-2-iv-1 mg/kg group and the Compound 10-2-po-1 mg/kg group was prepared as follows: approximately 3.0 mg of Compound 10-2 was weighed and mixed with 0.3 mL of DMSO. After thorough mixing, 29.7 mL of 10% sulfobutyl ether-β-cyclodextrin in normal saline was added, and the mixture was vortexed for 2 min until completely dissolved. The solution was freshly prepared before use.
The dosing solution for the Compound 1-2-iv-1 mg/kg group and the Compound 1-2-po-1 mg/kg group was prepared as follows: approximately 3.0 mg of Compound 1-2 was weighed and mixed with 0.3 mL of DMSO, followed by addition of 29.7 mL of normal saline. The mixture was vortexed for 2 min. The solution was freshly prepared before use.
The dosing solution for the Compound 67-iv-1 mg/kg group and the Compound 67-po-1 mg/kg group was prepared as follows: approximately 3.0 mg of Compound 67 was weighed and mixed with 1.5 mL of purified polyoxyethylene 35 castor oil, followed by addition of 28.5 mL of normal saline. The mixture was vortexed for 2 min and sonicated until completely dissolved. The solution was freshly prepared before use.
The dosing solution for the Compound 69-iv-1 mg/kg group and the Compound 69-po-1 mg/kg group was prepared as follows: approximately 3.0 mg of Compound 69 was weighed and mixed with 1.5 mL of PEG-400. After thorough mixing, 28.5 mL of normal saline was added, and the mixture was vortexed for 2 min and sonicated until completely dissolved. The solution was freshly prepared before use.
Dosing Regimen: Rats in the intravenous groups were administered by tail vein injection, and rats in the oral gavage groups were administered by oral gavage.
Rat dosing and sampling: The rats were divided into ten groups and received the corresponding test compounds at a dosing volume of 10 mL/kg by either intravenous injection via the tail vein or oral gavage. Blood samples of 0.2 mL were collected at 5, 15, and 30 min and at 1, 2, 4, 6, 8, 12, 24, and 48 h after dosing. Each blood sample was placed in a disposable anticoagulant tube and centrifuged at 3,500 rpm for 10 min at 4 °C. Plasma was then separated and stored at -20 °C until analysis.
Plasma Sample Preparation and LCMS Analysis: 50 µL of each plasma sample was transferred to a 1.5 mL centrifuge tube, and 200 µL of an internal standard working solution was added. The mixture was vortexed for 5 min and then centrifuged at 12,000 rpm for 10 min. The supernatant was transferred to an autosampler vial for LC/MS analysis, and chromatographic data were acquired.

[6] = read-out: PDE4B2, FP assay, Table 4
[7] = read-out: PDE3A, FP assay, Table 4

Compound	IC50 [1, 6] [nM]	IC50 [2] [nM]	IC50 [3, 7] [nM]	IC50 [4] [nM]	major pharmacokinetic profiles (in words) [5]	AUCINF_obs ([5]; iv (tail vein)) [ng·h/mL]	AUClast ([5]; iv (tail vein)) [ng·h/mL]	C0 ([5]; iv (tail vein)) [ng/mL]	T1/2 ([5]; iv (tail vein)) [h]	F [5] [%]	AUCINF_obs ([5]; po (oral gavage)) [ng·h/mL]	AUClast ([5]; po (oral gavage)) [ng·h/mL]	Cmax ([5]; po (oral gavage)) [ng/mL]	T1/2 ([5]; po (oral gavage)) [h]	Tmax ([5]; po (oral gavage)) [h]	IC50 ([1]; read-out: IC50, nM PDE4B2, FP assay II, Table 5) [nM]	IC50 ([3]; read-out: IC50, nM PDE3A, FP assay II, Table 5) [nM]
COc1cc2c(cc1OC)-c1cc(N(c3c(C)cc(C)cc3C)C(C)CNC(=O)c3[nH]nnc3C)nc(=O)n1CC2 (single isomer, unassigned) [Compound 12-1]	1.24	1.68	0.0451	0.0695	–	–	–	–	–	–	–	–	–	–	–	–	–
COc1cc2c(cc1OC)-c1cc(N(c3c(C)cc(C)cc3C)C(C)CNC(=O)c3ccccn3)nc(=O)n1CC2 (stereo not shown)	3	1.61	0.0785	0.111	–	–	–	–	–	–	–	–	–	–	–	–	–
COc1cc2c(cc1OC)-c1cc(N(c3c(C)cc(C)cc3C)C(C)CNC(=O)c3ncc[nH]3)nc(=O)n1CC2 (single isomer, unassigned) [Compound 10-2]	10.9	9.79	0.0332	0.0467	generally comparable to that of the reference compound RPL-554	381.58	381.25	706.51	0.58	1.23	4.69	4.02	3.83	2.05	0.42	–	–
COc1cc2c(cc1OC)-c1cc(=Nc3c(C)cc(C)cc3C)n(CCNC(N)=O)c(=O)n1CC2	107	74.4	0.579	0.775	–	211.41	210.79	333.09	1.62	1.48	3.13	1.59	0.91	4.60	0.25	107	0.579
COc1cc2c(cc1OC)-c1cc(N(c3c(C)cc(C)cc3C)C(C)CNC(=O)c3cccc(N)n3)nc(=O)n1CC2 (stereo not shown)	–	–	–	–	generally comparable to that of the reference compound RPL-554	196.57	193.67	339.49	1.08	1.24	2.43	1.04	0.76	2.76	0.83	–	–
COc1cc2c(cc1OC)-c1cc(N(c3c(C)cc(C)cc3C)C(C)CNC(N)=O)nc(=O)n1CC2 (single isomer, unassigned) [Compound 1-2]	23.8	15.3	0.09	0.0544	generally comparable to that of the reference compound RPL-554	347.40	347.00	748.58	1.10	1.50	5.21	2.23	1.15	9.61	0.28	–	–
COc1cc2c(cc1OC)-c1cc(N(c3c(C)cc(C)cc3C)C(C)CNC(=O)c3cc(N)ccn3)nc(=O)n1CC2 (stereo not shown)	–	–	–	–	generally comparable to that of the reference compound RPL-554	237.56	215.26	407.83	2.03	1.84	4.36	3.04	2.62	3.42	0.67	–	–

— patent EP4825857A1, “TRICYCLIC FUSED HETEROCYCLIC PDE3/4 DUAL INHIBITOR, AND PREPARATION AND USE THEREFOR” (dated 2026)
